Tested on: HER2+ breast cancer
Experiment: human PET study versus [18F] Fludeoxyglucose PET scan in an HER2+ breast cancer patient
Settings: in vivo
Source text: Embodiments of the present invention also utilize the therapeutic compounds of the invention in conjunction with a diagnostic. Compounds containing αvβ3/αvβ5 anti-integrin antagonist peptidomimetic, displaying a selective affinity for the HER2+ protein, vitronectin, fibronectin, tenascin, reelin, kindlin, talin or combination thereof for the diagnosis or prognosis of disorders using PET, SPECT and MRI or combinations by administering an effective amount of activity thereof to a subject, particularly for the diagnosis of diseases related to metastasis and angiogenesis such as breast cancer, lung cancer, ovarian cancer, gastric cancer, esophageal cancer, blood borne cancers, musculoskeletal tumors, melanoma, head and neck cancer, human glioma, cervical cancer, vascular restenosis, osteoporosis, rheumatoid arthritis. […] The compounds referred to may be radiotracers for nuclear medicine, such as the Gallium-68 or Fluorine-18, […], Copper-64, or Technetium-99m, covalently bound to a spacer, chelator, directly to the peptidomimetic, to a nanoparticle or to more than one amino acid unit of the peptidomimetic. Other radiotracers are those reported in the publication Radionuclide Peptide Cancer Therapy, edited by M. Chinol and G. Paganelli, Taylor and Francis CRC Press, 2006. […]

[18F] Fludeoxyglucose [reference compound]
tumors distant from the primary detected: 12 tumors

Source: patent US20200085979A1, “PRECISION MEDICINE THERANOSTICS AND DIAGNOSTICS A COMBINATION THEREOF” (priority 2018, published 2020)
